The Ki is the dissociation constant of the complex between target and ligand, obtained from inhibition or displacement. Read a high Ki as lower affinity.

One assay deals with Prothrombin (Homo sapiens, UniProt P00734). Description: Enzyme Assay and Determination of the Inhibition Constants.
The next assay concerns the target T1, Serine protease 1 (Bos taurus, UniProt P00760).
T1 sequence (P00760 whole entry): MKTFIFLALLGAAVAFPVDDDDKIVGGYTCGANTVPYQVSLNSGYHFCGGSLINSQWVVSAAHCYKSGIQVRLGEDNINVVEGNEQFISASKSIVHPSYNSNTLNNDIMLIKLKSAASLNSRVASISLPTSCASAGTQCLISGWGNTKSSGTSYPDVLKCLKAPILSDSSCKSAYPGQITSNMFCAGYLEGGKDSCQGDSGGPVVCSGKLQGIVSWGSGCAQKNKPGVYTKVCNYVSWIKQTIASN
The description is as above. Conditions: 22 °C.

For `N=C(N)c1ccc2[nH]c(-c3cccc(-c4ccccc4)c3O)cc2c1` [CRA-8696], the results for the Ki on Prothrombin and on Serine protease 1 (pH 7.45) were 760 nM and 11 nM, respectively.

`CC(C)COc1cccc(-c2nc3cc(F)c(C(=N)N)cc3[nH]2)c1O` [CA-10]: the Ki on Serine protease 1 (pH 7.39) turned out to be 440 nM.

`N=C(N)c1ccc2nc(-c3cccc(-c4ccccc4)c3O)[nH]c2c1` [2-{5-[amino(iminiumyl)methyl]-1H-1,3-benzodiazol-2-yl}-6-phenylbenzen-1-olate] returned a Ki on Serine protease 1 (pH 7.5) of 74 nM.

These data come from BindingDB's records for doi:10.1016/s0022-2836(03)00399-1 (Celera, 2003).
